The source of these data is ChEMBL document CHEMBL2169860, “Design of a hypoxia-activated prodrug inhibitor of O6-alkylguanine-DNA alkyltransferase” (Bioorg Med Chem Lett, 2012).

The target of the test is T1, Methylated-DNA--protein-cysteine methyltransferase (Homo sapiens, UniProt P16455).
T1 sequence (P16455 whole entry): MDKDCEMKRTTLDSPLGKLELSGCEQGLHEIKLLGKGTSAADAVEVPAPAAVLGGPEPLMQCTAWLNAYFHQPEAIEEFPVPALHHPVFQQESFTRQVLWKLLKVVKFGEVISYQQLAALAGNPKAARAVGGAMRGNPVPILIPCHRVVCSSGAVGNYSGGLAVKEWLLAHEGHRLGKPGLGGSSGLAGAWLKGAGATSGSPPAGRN

Usually IC50 stands for the concentration at which inhibition is half-maximal. Low readings indicate greater potency, high ones weaker potency. `Nc1nc(OCc2ccccc2)c2[nH]cnc2n1` [6-O-BENZYLGUANINE] yielded a concentration for half-maximal inhibition (IC50) of 39 nM.
